Assays:
[1] = biological target: Human recombinant PTP1B (Homo sapiens, UniProt P18031); assay: Inhibition of tri-phosphorylated insulin receptor dodecaphosphopeptide dephosphorylation by hPTP1B; assay type: biochemical
[2] = tested on: rat hepatic microsomal PTPases; assay: Inhibition of tri-phosphorylated insulin receptor dodecaphosphopeptide dephosphorylation by rat hepatic PTPases; details: PTPase activity, compound at 50 μM, rat liver microsomes

Amino acid sequences for entries named in this document (tags omitted). A change or cut given only in a name is not applied to a line headed by its entry.
UniProt P18031: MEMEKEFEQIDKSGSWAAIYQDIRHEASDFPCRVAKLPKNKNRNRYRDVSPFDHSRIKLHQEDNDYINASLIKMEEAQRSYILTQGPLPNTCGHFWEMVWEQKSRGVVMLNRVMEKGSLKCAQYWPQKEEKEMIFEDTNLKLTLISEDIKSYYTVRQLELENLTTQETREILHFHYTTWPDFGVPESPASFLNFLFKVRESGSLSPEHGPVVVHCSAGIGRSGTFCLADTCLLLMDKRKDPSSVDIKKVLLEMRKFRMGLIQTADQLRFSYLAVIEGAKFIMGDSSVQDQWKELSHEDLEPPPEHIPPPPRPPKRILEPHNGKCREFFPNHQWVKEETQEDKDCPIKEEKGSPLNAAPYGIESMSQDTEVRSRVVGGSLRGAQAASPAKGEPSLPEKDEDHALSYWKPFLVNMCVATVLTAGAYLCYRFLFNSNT

Substance | IC50 ([1]; recombinant PTP1B, malachite green phosphate detection) [µM] | % Change from Control [2] [%] | percent of phosphatase control (change) at single concentration ([1]; compound at 2.5 uM)
Phenylarsine oxide | 39.7 | −57 | –
{3′-5-Methyl-2-(4-trifluoromethyl-phenyl)-oxazol-4-yl]-biphenyl-4-yloxy}-acetic Acid | – | −30 | −47 (2.5 uM) %

Source: patent publication US6699896B1, “Oxazole-aryl-carboxylic acids useful in the treatment of insulin resistance and hyperglycemia” (Wyeth, priority 1998, dated 2004)
